The results in this text go back to patent publication US7192924B2, “Corticotropin releasing factor 2 receptor agonists” (priority 2002, dated 2007).

Like-named read-outs stand apart in the source and are kept apart here.

Usually EC50 stands for the concentration needed to bring the measured effect to its halfway point.

For experiment [1], the target named is T1, CRF2R (Homo sapiens, UniProt Q13324).
T1 sequence (Q13324 1-411): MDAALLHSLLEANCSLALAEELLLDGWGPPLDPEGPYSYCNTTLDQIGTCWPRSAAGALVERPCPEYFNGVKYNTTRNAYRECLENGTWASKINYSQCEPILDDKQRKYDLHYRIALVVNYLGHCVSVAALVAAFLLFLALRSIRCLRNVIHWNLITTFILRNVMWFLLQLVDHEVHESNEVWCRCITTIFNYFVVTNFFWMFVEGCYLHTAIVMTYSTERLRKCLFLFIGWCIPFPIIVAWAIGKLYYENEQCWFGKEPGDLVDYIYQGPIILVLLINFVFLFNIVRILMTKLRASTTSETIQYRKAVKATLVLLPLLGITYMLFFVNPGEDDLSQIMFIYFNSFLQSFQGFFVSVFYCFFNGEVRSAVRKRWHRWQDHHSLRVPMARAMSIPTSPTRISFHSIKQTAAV
The experiment is described as follows: CRF2R agonist activity (EC50, Emax), called comparative CRF binding. It is filed as cell-based. In a few lines: (§1)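 Cells expressing only CRF1R or only CRF2R (or recombinant receptor) are contacted with peptide or vehicle control. Receptor activation is read as cAMP induction, measured in cell lysates or via a cAMP-responsive-element reporter gene such as luciferase.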

Experiment [2] addresses T2, CRF1R (Homo sapiens, UniProt P34998).
T2 sequence (P34998 24-415): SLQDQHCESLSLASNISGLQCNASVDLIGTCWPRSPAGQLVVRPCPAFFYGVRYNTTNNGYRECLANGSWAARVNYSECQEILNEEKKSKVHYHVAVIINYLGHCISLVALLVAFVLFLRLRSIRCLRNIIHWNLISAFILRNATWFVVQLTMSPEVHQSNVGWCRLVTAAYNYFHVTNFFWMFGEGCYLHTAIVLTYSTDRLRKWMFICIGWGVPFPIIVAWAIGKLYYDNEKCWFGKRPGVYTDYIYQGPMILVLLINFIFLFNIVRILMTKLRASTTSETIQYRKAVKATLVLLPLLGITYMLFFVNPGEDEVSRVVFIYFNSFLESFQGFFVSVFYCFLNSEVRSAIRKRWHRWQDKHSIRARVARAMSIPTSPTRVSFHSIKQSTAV
The experiment is described as follows: CRF1R agonist activity (EC50, Emax), called comparative CRF binding. It is filed as cell-based. In a few lines: as §1

As to `CC[C@H](C)[C@H](NC(=O)[C@@H](NC(=O)[C@H](C)NC(=O)[C@H](CC(C)C)NC(=O)[C@H](CC(C)C)NC(=O)[C@H](CC(C)C)NC(=O)[C@H](C)NC(=O)[C@H](CC(N)=O)NC(=O)[C@H](CC(N)=O)NC(=O)[C@H](C)NC(=O)[C@H](C)NC(=O)[C@H](CCC(N)=O)NC(=O)[C@H](CCC(N)=O)NC(=O)[C@H](CCCCN)NC(=O)[C@H](CCC(=O)O)NC(=O)[C@H](CCCCN)NC(=O)[C@H](CCC(=O)O)NC(=O)[C@H](CCC(N)=O)NC(=O)[C@H](CCCCN)NC(=O)[C@H](CCC(=O)O)NC(=O)[C@@H](NC(=O)[C@H](CCC(=O)O)NC(=O)[C@@H](NC(=O)[C@H](CCSC)NC(=O)[C@H](CCCCN)NC(=O)[C@H](CCCNC(=N)N)NC(=O)[C@H](CC(C)C)NC(=O)[C@H](CC(C)C)NC(=O)[C@H](Cc1c[nH]cn1)NC(=O)[C@H](CC(C)C)NC(=O)[C@@H]1CCCN1C(=O)[C@H](CC(C)C)NC(=O)[C@H](CC(=O)O)NC(=O)[C@@H](NC(=O)[C@H](CO)NC(=O)[C@@H](NC(=O)[C@@H]1CCCN1C(=O)[C@@H]1CCCN1C(=O)CNC(=O)[C@@H]1CCC(=O)N1)[C@@H](C)CC)[C@@H](C)CC)[C@@H](C)CC)[C@@H](C)CC)[C@@H](C)O)C(N)=O` [compound 241], the EC50 in experiment [1] is 12.6 nM; in experiment [2] it was 308 nM.

Regarding `CC[C@H](C)[C@H](NC(=O)[C@H](CCC(=O)O)NC(=O)[C@@H](NC(=O)[C@H](CCSC)NC(=O)[C@H](CCCCN)NC(=O)[C@H](CCCNC(=N)N)NC(=O)[C@H](CC(C)C)NC(=O)[C@H](CC(C)C)NC(=O)[C@H](Cc1ccc(O)cc1)NC(=O)[C@H](CC(C)C)NC(=O)[C@@H]1CCCN1C(=O)[C@H](CC(C)C)NC(=O)[C@H](CC(=O)O)NC(=O)[C@@H](NC(=O)[C@H](CO)NC(=O)[C@@H](NC(=O)[C@@H]1CCCN1C(=O)[C@@H]1CCCN1C(=O)CNC(=O)[C@@H]1CCC(=O)N1)[C@@H](C)CC)[C@@H](C)CC)[C@@H](C)CC)C(=O)N[C@@H](CCC(=O)O)C(=O)N[C@@H](CCCCN)C(=O)N[C@@H](CCC(N)=O)C(=O)N[C@@H](CCC(=O)O)C(=O)N[C@@H](CCCCN)C(=O)N[C@@H](CCC(=O)O)C(=O)N[C@@H](CCCCN)C(=O)N[C@@H](CCC(N)=O)C(=O)N[C@@H](CCC(N)=O)C(=O)N[C@@H](C)C(=O)N[C@H](C(=O)N[C@H](C(=O)N[C@@H](CC(N)=O)C(=O)N[C@@H](C)C(=O)N[C@@H](CCCNC(=N)N)C(=O)N[C@@H](CC(C)C)C(=O)N[C@@H](CC(C)C)C(=O)N[C@@H](CC(=O)O)C(=O)N[C@H](C(=O)N[C@H](C(N)=O)C(C)C)[C@@H](C)O)[C@@H](C)O)[C@@H](C)O` [compound 242], the EC50 in experiment [1] turned out to be 29 nM; in experiment [2] it was 358 nM.

As to `CC[C@H](C)[C@H](NC(=O)[C@H](CCC(=O)O)NC(=O)[C@@H](NC(=O)[C@H](CCSC)NC(=O)[C@H](CCCCN)NC(=O)[C@H](CCCNC(=N)N)NC(=O)[C@H](CC(C)C)NC(=O)[C@H](CC(C)C)NC(=O)[C@H](Cc1ccc(O)cc1)NC(=O)[C@H](CC(C)C)NC(=O)[C@@H]1CCCN1C(=O)[C@H](CC(C)C)NC(=O)[C@H](CC(=O)O)NC(=O)[C@@H](NC(=O)[C@H](CO)NC(=O)[C@@H](NC(=O)[C@@H]1CCCN1C(=O)[C@@H]1CCCN1C(=O)CNC(=O)[C@@H]1CCC(=O)N1)[C@@H](C)CC)[C@@H](C)CC)[C@@H](C)CC)C(=O)N[C@@H](CCC(=O)O)C(=O)N[C@@H](CCCCN)C(=O)N[C@@H](CCC(N)=O)C(=O)N[C@@H](CCC(=O)O)C(=O)N[C@@H](CCCCN)C(=O)N[C@@H](CCC(=O)O)C(=O)N[C@@H](CCCCN)C(=O)N[C@@H](CCC(N)=O)C(=O)N[C@@H](CCC(N)=O)C(=O)N[C@@H](C)C(=O)N[C@H](C(=O)N[C@H](C(=O)N[C@@H](CC(N)=O)C(=O)N[C@@H](C)C(=O)N[C@@H](CCCNC(=N)N)C(=O)N[C@@H](CC(C)C)C(=O)N[C@@H](CC(C)C)C(=O)N[C@@H](CC(=O)O)C(=O)N[C@@H](CCCNC(=N)N)C(=O)N[C@H](C(N)=O)C(C)C)[C@@H](C)O)[C@@H](C)O` [compound 243], the EC50 in experiment [1] (read-out: CRF2R EC50) came to 16.8 nM; in experiment [2] (read-out: CRF1R EC50) it was 440 nM.

As for `CC[C@H](C)[C@H](NC(=O)[C@@H](NC(=O)[C@H](CC(=O)O)NC(=O)[C@H](CC(C)C)NC(=O)[C@H](CC(C)C)NC(=O)[C@H](CC(C)C)NC(=O)[C@H](C)NC(=O)[C@H](CC(N)=O)NC(=O)[C@H](CC(N)=O)NC(=O)[C@H](C)NC(=O)[C@H](C)NC(=O)[C@H](CCC(N)=O)NC(=O)[C@H](CCC(N)=O)NC(=O)[C@H](CCCCN)NC(=O)[C@H](CCC(=O)O)NC(=O)[C@H](CCCCN)NC(=O)[C@H](CCC(=O)O)NC(=O)[C@H](CCC(N)=O)NC(=O)[C@H](CCCCN)NC(=O)[C@H](CCC(=O)O)NC(=O)[C@@H](NC(=O)[C@H](CCC(=O)O)NC(=O)[C@@H](NC(=O)[C@H](CCSC)NC(=O)[C@H](CCCCN)NC(=O)[C@H](CCCNC(=N)N)NC(=O)[C@H](CC(C)C)NC(=O)[C@H](CC(C)C)NC(=O)[C@H](Cc1ccc(O)cc1)NC(=O)[C@H](CC(C)C)NC(=O)[C@@H]1CCCN1C(=O)[C@H](CC(C)C)NC(=O)[C@H](CC(=O)O)NC(=O)[C@@H](NC(=O)[C@H](CO)NC(=O)[C@@H](NC(=O)[C@@H]1CCCN1C(=O)[C@@H]1CCCN1C(=O)CNC(=O)[C@@H]1CCC(=O)N1)[C@@H](C)CC)[C@@H](C)CC)[C@@H](C)CC)[C@@H](C)CC)[C@@H](C)O)C(N)=O` [compound 244], the EC50 turned out to be 8.8 nM in experiment [1] and 300 nM in experiment [2].

Regarding `CC[C@H](C)[C@H](NC(=O)[C@H](CCC(=O)O)NC(=O)[C@@H](NC(=O)[C@H](CCSC)NC(=O)[C@H](CCCCN)NC(=O)[C@H](CCCNC(=N)N)NC(=O)[C@H](CC(C)C)NC(=O)[C@H](CC(C)C)NC(=O)[C@H](CCC(N)=O)NC(=O)[C@H](CC(C)C)NC(=O)[C@@H]1CCCN1C(=O)[C@H](CC(C)C)NC(=O)[C@H](CC(=O)O)NC(=O)[C@@H](NC(=O)[C@H](CO)NC(=O)[C@@H](NC(=O)[C@@H]1CCCN1C(=O)[C@@H]1CCCN1C(=O)CNC(=O)[C@@H]1CCC(=O)N1)[C@@H](C)CC)[C@@H](C)CC)[C@@H](C)CC)C(=O)N[C@@H](CCC(=O)O)C(=O)N[C@@H](CCCCN)C(=O)N[C@@H](CCC(N)=O)C(=O)N[C@@H](CCC(=O)O)C(=O)N[C@@H](CCCCN)C(=O)N[C@@H](CCC(=O)O)C(=O)N[C@@H](CCCCN)C(=O)N[C@@H](CCC(N)=O)C(=O)N[C@@H](CCC(N)=O)C(=O)N[C@@H](C)C(=O)N[C@H](C(=O)N[C@H](C(=O)N[C@@H](CC(N)=O)C(=O)N[C@@H](C)C(=O)N[C@@H](CCCNC(=N)N)C(=O)N[C@@H](CC(C)C)C(=O)N[C@@H](CC(C)C)C(=O)N[C@@H](CC(=O)O)C(=O)N[C@H](C(=O)N[C@H](C(N)=O)C(C)C)[C@@H](C)O)[C@@H](C)O)[C@@H](C)O` [compound 246], the EC50 in experiment [1] (read-out: CRF2R EC50) is 38.8 nM; in experiment [2] (read-out: CRF1R EC50), no less than 1000 nM.

As for `CC[C@H](C)[C@H](NC(=O)[C@@H](NC(=O)[C@H](C)NC(=O)[C@H](CC(C)C)NC(=O)[C@H](CC(C)C)NC(=O)[C@H](CC(C)C)NC(=O)[C@H](CCCNC(=N)N)NC(=O)[C@H](CC(N)=O)NC(=O)[C@H](CC(N)=O)NC(=O)[C@H](C)NC(=O)[C@H](C)NC(=O)[C@H](CCC(N)=O)NC(=O)[C@H](CCC(N)=O)NC(=O)[C@H](CCCCN)NC(=O)[C@H](CCC(=O)O)NC(=O)[C@H](CCCCN)NC(=O)[C@H](CCC(=O)O)NC(=O)[C@H](CCC(N)=O)NC(=O)[C@H](CCCCN)NC(=O)[C@H](CCC(=O)O)NC(=O)[C@@H](NC(=O)[C@H](CCC(=O)O)NC(=O)[C@@H](NC(=O)[C@H](CCSC)NC(=O)[C@H](CCCCN)NC(=O)[C@H](CCCNC(=N)N)NC(=O)[C@H](CC(C)C)NC(=O)[C@H](CC(C)C)NC(=O)[C@H](CCC(N)=O)NC(=O)[C@H](Cc1ccccc1)NC(=O)[C@@H]1CCCN1C(=O)[C@H](CC(C)C)NC(=O)[C@H](CC(=O)O)NC(=O)[C@@H](NC(=O)[C@H](CO)NC(=O)[C@@H](NC(=O)[C@@H]1CCCN1C(=O)[C@@H]1CCCN1C(=O)CNC(=O)[C@@H]1CCC(=O)N1)[C@@H](C)CC)[C@@H](C)CC)[C@@H](C)CC)[C@@H](C)CC)[C@@H](C)O)C(N)=O` [compound 250], the EC50 worked out at 19.7 nM in experiment [1] and 138 nM in experiment [2].
